Target: T1, transferrin receptor (Homo sapiens, UniProt P02786)
T1 construct: endogenous in cells; host or cells: HT-29 human colon cancer cells
Assay: In vitro selectivity of TfV-750 labeling of HT-29 cells (flow cytometry, fluorescence microscopy)
Type: cell-based
Conditions: HT-29 human colorectal cells; 1 μM probe, 1 h at room temperature; flow cytometry and fluorescence microscopy
Protocol: The molecular weight of TfV-750 is approximately 106,000 g/mol, with an excitation/emission profile determined as 750/770 nm (S6 Fig). Selectivity was assessed in vitro by flow cytometry and fluorescence microscopy using HT-29 human colorectal cells; fluorescence signal on TfV-750-labeled cells was ~15X greater than when 100 μM unlabeled recombinant transferrin was used to block labeling (S7 Fig). Plasma pharmacokinetics of TfV-750 was assessed in CD-1 mice. Animals were bled at indicated times, and plasma fluorescence was determined using a microplate assay. […] The probe has good tissue penetration into tumors, as its binding pattern in tumor sections (using a 645 nm FLI surrogate to improve microscopy imaging) correlates well with the transferrin receptor expression on cancer cells and is not associated with the tumor vasculature (S10 Fig).
Supplementary file pone.0182689.s007.tif: S7 Fig Specific binding of TfV-750 to transferrin receptor on cancer cells. A: HT-29 cells (human colon cancer tumor line) were incubated with 1 μM TfV-750 for 1 h at room temperature and assessed by flow cytometry, showing effective uptake in the tumor cells. […] C: Generation of cellular microscopy images required the use of a 645 nm fluorochrome-labeled transferrin to more sensitively detect cellular fluorescence by microscopy. […]

Chains of the proteins cited; added tags and fusions are not shown.
UniProt P02786, whole entry: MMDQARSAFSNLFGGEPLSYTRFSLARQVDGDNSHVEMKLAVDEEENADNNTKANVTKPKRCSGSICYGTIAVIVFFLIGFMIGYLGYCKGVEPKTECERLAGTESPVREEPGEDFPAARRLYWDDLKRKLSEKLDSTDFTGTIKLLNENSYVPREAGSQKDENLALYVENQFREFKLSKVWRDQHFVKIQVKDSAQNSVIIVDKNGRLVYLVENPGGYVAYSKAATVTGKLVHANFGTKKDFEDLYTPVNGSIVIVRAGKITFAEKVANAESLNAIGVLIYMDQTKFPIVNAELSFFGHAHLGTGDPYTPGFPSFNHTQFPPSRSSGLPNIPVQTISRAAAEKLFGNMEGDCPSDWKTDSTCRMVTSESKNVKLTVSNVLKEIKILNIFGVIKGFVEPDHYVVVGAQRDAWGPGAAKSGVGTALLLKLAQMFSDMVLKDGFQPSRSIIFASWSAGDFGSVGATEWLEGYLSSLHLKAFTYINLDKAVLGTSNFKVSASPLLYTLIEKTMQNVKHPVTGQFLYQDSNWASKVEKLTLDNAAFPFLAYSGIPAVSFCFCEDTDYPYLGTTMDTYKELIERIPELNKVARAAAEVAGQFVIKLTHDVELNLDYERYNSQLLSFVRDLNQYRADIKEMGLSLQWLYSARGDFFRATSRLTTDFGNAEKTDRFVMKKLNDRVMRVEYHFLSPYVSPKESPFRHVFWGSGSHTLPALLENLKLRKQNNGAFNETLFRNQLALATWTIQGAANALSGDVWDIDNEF

- fluorescence signal on labeled cells relative to block with 100 μM unlabeled recombinant transferrin: ~ 15 X
Substance: TfV-750: PEGylated recombinant transferrin with a NIR fluorescent reporter (ex/em 750/770 nm); transferrin receptor imaging probe
